Earlier results on one compound are cited in patent US20250356984A1 (priority 2022, published 2025).

Only a part of the results on these compounds is given; other tests are left out.

For this series the following is noted: point at which drug concentration in the blood is 50% after discontinuation of infusion.

For `CCC(=O)N(c1ccccc1)C1(C(=O)OC)CCN(CCC(=O)OC)CC1`, the context-sensitive half-life time was 3 min.
